# In patent US20100093719A1, “PHARMACOKINETICALLY IMPROVED COMPOUNDS” (SURFACE LOGIX, INC., priority 2005, published 2010):
# Columns and labels:
# Non-specific binding = type: in vitro ADME
# Caco-2 = Caco-2 permeability
# Description: Several model systems are available, employing monolayers of various cell types, for evaluation of active transport of pharmaceutically active substances. For example, monolayers of Caco-2 intestinal epithelial cells can be used to evaluate active transport of substances between the intestine and the bloodstream. When plated on a surface which allows the flow of material from apical to basolateral and vice versa, such cells form a biological membrane which can be used to simulate physiological absorption and bio-availability. In another example, mouse brain capillary endothelial cell (MBEC) lines have been established to evaluate active transport in and out of the central nervous system. Another example of such cells is HT29 human colon carcinoma cells. Further, monolayers expressing particular transporter proteins can be established using transfected cells. For example, Sasaki et al (2002) J. Biol. Chem. 8:6497 used a double-transfected Madin-Darby canine kidney cell monolayer to study transport of organic anions.
# PDE-6 = assay: Phosphodiesterase inhibition PDE-6; conditions: read-out: PDE-6
# Protocol: Phosphodiesterase inhibition was determined by methods known to one of skill in the art.
# [1] = Protein binding by ultrafiltration
# Protocol: Protein binding was determined by standard ultrafiltration methods.
# PAMPA permeability = type: in vitro ADME
compound,measurement,setting,value
CCCc1nc(C)c2c(=O)[nH]c(-c3cc(S(=O)(=O)N(C)CC(=O)N(C)CCOC)ccc3OCC)nn12,Non-Spec Binding,Non-specific binding,0%
same,Caco-2 AtoB,Caco-2; AtoB,11.4 10^−6
same,Caco-2 BtoA,Caco-2; BtoA,63.3 10^−6
same,pIC50,PDE-6,8.22
same,Protein Binding,[1],95.8%
same,PAMPA Hex,PAMPA permeability,1.45 10^−6

# pIC50: −log10 of the molar value.
